Drawing on patent publication KR20150063728A (dated 2015), this text covers Kd, koff and kon for one molecule.

Test [1] has as its target T1, VEGF-C-Fc (#358-MT/CF, R&D Systems).
T1 construct: Analyte of the Biacore run as printed; the printed catalogue number may not belong to a VEGF-C product
Put plainly: SPR, Biacore T100; bispecific captured by human Fab binder on CM5, VEGF-C-Fc injected. Background: In SPR one partner is held on a chip, and binding of the other changes the refractive index at the surface.

Test [2] deals with T2, 인간 Ang2 폴리펩타이드 (Human Ang2; R&D systems; Accession # O15123) (human, UniProt O15123 19-496).
T2 construct: Bought from R&D Systems; also called hAng2
T2 sequence: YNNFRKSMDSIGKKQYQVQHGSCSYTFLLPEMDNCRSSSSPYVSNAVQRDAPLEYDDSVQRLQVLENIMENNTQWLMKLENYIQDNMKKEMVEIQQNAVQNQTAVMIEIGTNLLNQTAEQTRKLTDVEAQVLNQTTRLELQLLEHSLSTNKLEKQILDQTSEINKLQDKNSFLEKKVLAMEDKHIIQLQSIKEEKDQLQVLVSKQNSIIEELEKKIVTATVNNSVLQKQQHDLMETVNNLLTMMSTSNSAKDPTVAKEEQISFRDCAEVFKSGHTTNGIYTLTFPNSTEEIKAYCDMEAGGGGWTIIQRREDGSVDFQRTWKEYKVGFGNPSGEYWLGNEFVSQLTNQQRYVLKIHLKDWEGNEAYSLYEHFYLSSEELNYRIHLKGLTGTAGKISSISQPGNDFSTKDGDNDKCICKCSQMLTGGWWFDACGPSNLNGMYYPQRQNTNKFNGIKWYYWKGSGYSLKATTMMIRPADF
Description: kinetic values printed as for Biacore T100; the text describes only an ELISA for Ang2.

The Kd is a measure of binding affinity in units of concentration. As a reminder, the koff is a measure of how fast the partners let go of each other. A low value points to a long-lived complex. As usually defined, the kon is the second-order rate constant of association. The low end stands for slow association, the high end for fast association.

B1: 항 VEGF-C/항 Ang2 이중 특이 항체 (bispecific antibody)
heavy: EVQLLESGGGLVQPGGSLRLSCAASGFTFSSYDMSWVRQAPGKGLEWVSAISYDNGSTYYADSVKGRFTISRDNSKNTLYLQMNSLRAEDTAVYYCARDPYLARLNTFDYWGQGTLVTVSSASTKGPSVFPLAPCSRSTSESTAALGCLVKDYFPEPVTVSWNSGALTSGVHTFPAVLQSSGLYSLSSVVTVPSSNFGTQTYTCNVDHKPSNTKVDKTVERKCCVECPPCPAPPVAGPSVFLFPPKPKDTLMISRTPEVTCVVVDVSHEDPEVQFNWYVDGVEVHNAKTKPREEQFNSTFRVVSVLTVVHQDWLNGKEYKCKVSNKGLPAPIEKTISKTKGQPREPQVYTLPPSREEMTKNQVSLTCLVKGFYPSDISVEWESNGQPENNYKTTPPMLDSDGSFFLYSKLTVDKSRWQQGNVFSCSVMHEALHNHYTQKSLSLSPGKGGGGSGGGGSEVQLLESGGGLVQPGGSLRLSCAASGFTFSSYDMSWVRLAPGKGLEWVSLISPDSSSIYYADSVKGRFTISRDNSKNTLYLQMNSLRAEDTAVYYCAKDLISFWRGGFDYWGQGTLVTVSSGGGGSGGGGSGSGGSQSVLTQPPSASGTPGQRVTISCSGSSSNIGSNYVNWYQQLPGTAPKLLIYSDSHRPSGVPDRFSGSKSGTSASLAISGLRSEDEADYYCGAWDDSLSGYVFGGGTKLTVLGQ
light: QSVLTQPPSASGTPGQRVTISCSGSSSNIGSNNVSWYQQLPGTAPKLLIYYNSHRPSGVPDRFSGSKSGTSASLAISGLRSEDEADYYCATWDSSLNGYVFGGGTKLTRTVAAPSVFIFPPSDEQLKSGTASVVCLLNNFYPREAKVQWKVDNALQSGNSQESVTEQDSKDSTYSLSSTLTLSKADYEKHKVYACEVTHQGLSSPVTKSFNRGEC
In test [1], B1 came in with an equilibrium dissociation constant (Kd) of 0.358 nM, a koff of 0.0014 s⁻¹ and a kon of 3.92e+06 M⁻¹ s⁻¹. Further, in test [2], the Kd was 0.004 nM, the koff is 5.41e-06 s⁻¹ and the kon is 1.35e+06 M⁻¹ s⁻¹.
